{
  "sequences": {"note": "Protein sequences, listed by entry. Tags and fused reporters are not part of them.", "UniProt Q04609, whole entry": "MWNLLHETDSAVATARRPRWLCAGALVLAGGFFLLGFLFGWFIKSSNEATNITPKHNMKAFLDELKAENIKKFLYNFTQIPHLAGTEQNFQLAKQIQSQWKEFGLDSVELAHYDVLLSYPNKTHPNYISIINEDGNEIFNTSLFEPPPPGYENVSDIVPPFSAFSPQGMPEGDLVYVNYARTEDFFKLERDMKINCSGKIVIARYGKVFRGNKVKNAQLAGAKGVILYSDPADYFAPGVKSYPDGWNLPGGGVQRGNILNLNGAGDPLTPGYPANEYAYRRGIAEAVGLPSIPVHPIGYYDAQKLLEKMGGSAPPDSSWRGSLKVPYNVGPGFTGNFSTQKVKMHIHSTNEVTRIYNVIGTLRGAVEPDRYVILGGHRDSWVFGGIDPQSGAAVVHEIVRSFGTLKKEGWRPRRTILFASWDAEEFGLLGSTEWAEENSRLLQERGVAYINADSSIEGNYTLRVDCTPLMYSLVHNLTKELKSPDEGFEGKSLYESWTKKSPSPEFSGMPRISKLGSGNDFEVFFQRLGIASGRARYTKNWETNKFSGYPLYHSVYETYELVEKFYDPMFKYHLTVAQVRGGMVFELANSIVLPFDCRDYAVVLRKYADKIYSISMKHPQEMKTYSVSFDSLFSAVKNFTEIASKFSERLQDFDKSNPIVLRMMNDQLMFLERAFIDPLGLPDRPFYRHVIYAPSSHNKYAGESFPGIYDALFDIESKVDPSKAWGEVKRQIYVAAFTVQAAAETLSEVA"},
  "source": "paper PMC5897267",
  "about": "(EJNMMI Research, 2018)",
  "target": "PSMA (Homo sapiens, UniProt Q04609)",
  "assay": "Competitive binding assay (IC50) on LNCaP cells with ([125I]I-BA)KuE as radioligand",
  "details": "versus EuE-k-FBOA, respectively",
  "data": [
    {"smiles": "O=C(O)CC[C@H](NC(=O)N[C@@H](CCC(=O)N[C@H](CCCCNC(=O)CCNC(=O)c1ccc(F)nc1)C(=O)O)C(=O)O)C(=O)O", "values": [
      {"measurement": "PSMA affinity relative to EuE-k-FBOA, F-PSMA-1007 and F-DCFPyl", "value": "4- to 12 fold"}
    ]}
  ]
}
